Laboratory results as given in US9682983B2, “BMP inhibitors and methods of use thereof” (THE BRIGHAM AND WOMEN'S HOSPITAL, INC., priority 2013, dated 2017).

By UniProt entry, the sequences of proteins in these tests, tags left out. Residues count along the entry.
UniProt Q04771, 21-509: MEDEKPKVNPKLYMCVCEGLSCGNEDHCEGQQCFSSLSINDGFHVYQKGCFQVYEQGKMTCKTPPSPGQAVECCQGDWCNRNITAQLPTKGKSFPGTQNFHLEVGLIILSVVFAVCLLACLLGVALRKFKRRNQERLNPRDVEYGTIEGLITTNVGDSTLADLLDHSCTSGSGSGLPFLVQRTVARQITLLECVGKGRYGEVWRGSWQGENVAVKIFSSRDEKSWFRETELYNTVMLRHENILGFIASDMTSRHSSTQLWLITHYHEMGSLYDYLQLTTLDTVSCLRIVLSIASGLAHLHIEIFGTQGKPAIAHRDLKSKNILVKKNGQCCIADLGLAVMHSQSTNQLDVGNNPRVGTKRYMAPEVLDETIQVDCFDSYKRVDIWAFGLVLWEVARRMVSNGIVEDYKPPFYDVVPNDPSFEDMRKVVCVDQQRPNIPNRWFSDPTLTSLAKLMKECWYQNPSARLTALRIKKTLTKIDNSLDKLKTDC

Experiments:
[1] = target: human ALK2 (Homo sapiens (Human), UniProt Q04771); assay: LANCE Ultra ULight enzymatic assay (FOP Enzymatic Assay), ALK2; assay type: biochemical; details: read-out: ALK2 IC50 (nM) at 10 μM ATP
[2] = tested on: TGF-β signaling activity (CAGA-Luc, human embryonic kidney 293T cells); assay: Cell luciferase assay, TGFβ (293T CAGA-Luc, TGF-β1 ligand); details: HEK-293T, read-out: Cellular Assay IC50 (nM) TGFβ
[3] = tested on: BMP signaling activity (BRE-Luc, C2C12 myofibroblasts cells); assay: Cell luciferase assay, BMP (C2C12 BRE-Luc, BMP6 ligand); assay type: cell-based; details: Mus musculus, BMP6 50 ng/mL, read-out: Cellular Assay IC50 (nM) BMP

Structure (SMILES) | IC50 [1] | IC50 [2] | IC50 [3]
Cc1cc(-c2cnn3cc(-c4ccc(N5CCNCC5)cc4)cnc23)c2ccccc2n1 [Compound 10, 2-methyl-4-(6-(4-(piperazin-1-yl)phenyl)pyrazolo[1,5-a]pyrimidin-3-yl)quinoline] | 23 nM | – | –
Cc1ccc2c(-c3cnn4cc(-c5ccc(OCCN6CCCCC6)cn5)cnc34)cccc2n1 [Compound 48′, 2-methyl-5-(6-(5-(2-(piperidin-1-yl)ethoxy)pyridin-2-yl)pyrazolo[1,5-a]pyrimidin-3-yl)quinoline] | – | 1140 nM | 587 nM
C[C@@H]1CNC[C@H](C)N1c1ccc(-c2cnc3c(-c4cccc5[nH]c(=O)ccc45)cnn3c2)cc1 [Compound 68, 5-(6-(4-((2S,6R)-2,6-dimethylpiperazin-1-yl)phenyl)pyrazolo[1,5-a]pyrimidin-3-yl)quinolin-2(1H)-one] | – | 5380 nM | –
c1ccc2c(-c3cnn4cc(-c5ccc(N6CCNCC6)nc5)cnc34)ccnc2c1 [compound 1, 4-(6-(6-(piperazin-1-yl)pyridin-3-yl)pyrazolo[1,5-a]pyrimidin-3-yl)quinoline] | – | 8170 nM | –
Cc1cc(-c2cnn3cc(-c4ccc(N5CCNCC5)nc4)cnc23)c2ccccc2n1 [compound 12, 2-methyl-4-(6-(6-(piperazin-1-yl)pyridin-3-yl)pyrazolo[1,5-a]pyrimidin-3-yl)quinoline] | – | 463 nM | –
[2H]c1cc(-c2cnn3cc(-c4ccc(N5CCNCC5)nc4)cnc23)c2ccccc2n1 [compound 17, 4-(6-(6-(piperazin-1-yl)pyridin-3-yl)pyrazolo[1,5-a]pyrimidin-3-yl)quinoline] | – | 3450 nM | –
[2H]c1ccc2c(-c3cnn4cc(-c5ccc(OCCN6CCNCC6)cn5)cnc34)cccc2n1 [compound 49, 5-(6-(5-(2-(piperazin-1-yl)ethoxy)pyridin-2-yl)pyrazolo[1,5-a]pyrimidin-3-yl)-2-^2H-quinoline] | – | 3210 nM | –
